# Assay results as given in PubChem BioAssay AID1861 (The Scripps Research Institute Molecular Screening Center, 2009).
# Chains of the proteins cited; added tags and fusions are not shown.
# UniProt P48145, whole entry: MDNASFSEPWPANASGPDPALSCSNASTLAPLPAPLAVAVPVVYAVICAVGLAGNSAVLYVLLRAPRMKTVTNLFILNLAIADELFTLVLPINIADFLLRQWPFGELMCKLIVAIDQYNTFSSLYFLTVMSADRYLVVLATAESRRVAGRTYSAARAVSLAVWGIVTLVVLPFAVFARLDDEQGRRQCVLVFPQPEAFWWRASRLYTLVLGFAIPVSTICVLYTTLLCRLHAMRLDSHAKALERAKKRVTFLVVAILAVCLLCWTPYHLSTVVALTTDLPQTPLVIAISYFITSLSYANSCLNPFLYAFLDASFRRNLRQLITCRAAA
# The list shows a part of the results, in another mix than the full data. Some results for these compounds are left out of this collection, so the calls shown say nothing about other tests. The source made the active and inactive calls. Rule as the data show it: active = inhibition above about 16% (passing the limit was not always enough); inactive = the rest.
# Biological target: Neuropeptides B/W receptor type 1 (Homo sapiens) (UniProt P48145)
# Experiment: GPR7 receptor antagonists, primary screen, cell-based, fluorescence, single concentration (AID 1861);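 also: cells stimulated with the agonist NPW; 0% = agonist with vehicle and 100% = vehicle without agonist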
# Conditions: GPR7-expressing cells, fluorescence antagonist assay; at 4.4 µM; stronger effect = higher value
row,Structure (SMILES),inhibition
1,O=C(NCC1(N2CCCCC2)CCCCC1)c1cc(F)c(F)cc1Cl,inactive: -9.24%
2,C=CCN1CCN(CCOC(=O)C(O)(c2ccccc2)c2ccccc2)CC1,inactive: -4.72%
3,COc1ccc(C(=O)NCC2(N(C)C)CCCCC2)cc1,inactive: -7.28%
4,O=C(NCC1(N2CCCCC2)CCCCC1)c1cccc(Br)c1,inactive: 0.52%
5,CCN1CCCC(OC(=O)C2(O)c3ccccc3C=Cc3ccccc32)C1 (centres undefined),inactive: 2.8%
6,Cc1cc(C(=O)NCC2(N3CCCCC3)CCCCC2)ccc1[N+](=O)[O-],inactive: -10.3%
7,CN(C)c1ccc(C(=O)NCC2(N(C)C)CCCCC2)cc1,inactive: -13.4%
8,CN(C)C1CCCC1OC(=O)C(O)(c1ccccc1)c1ccccc1 (centres undefined),inactive: -13.5%
9,Cc1ccccc1C(=O)NCC1(N2CCCCC2)CCCCC1,inactive: 5.74%
10,COc1cc(SC)ccc1C(=O)NCC1(N(C)C)CCCCC1,inactive: 3.04%
11,CCN(CC)CC(C)C(C)OC(=O)C(O)(c1ccccc1)c1ccccc1 (centres undefined),inactive: -8.13%
12,CC(C)N1C(=O)CC2(CCN(CCOC(=O)C(O)(c3ccccc3)c3ccccc3)CC2)C1=O,inactive: -7.61%
13,Cc1ccc(C(=O)NCC2(N3CCCCC3)CCCCC2)cc1,inactive: -2.74%
14,O=C(NCC1(N2CCCCC2)CCCCC1)c1cc([N+](=O)[O-])ccc1Cl,inactive: 0.56%
15,CN1[C@@H]2CC[C@H]1CC(OC(=O)C(O)(c1ccccc1)c1ccccc1)C2 (some centres undefined),inactive: 8.66%
16,COc1ccc(Br)c(C(=O)NCC2(N3CCCCC3)CCCCC2)c1,inactive: 3.48%
17,CC(C)Oc1ccc(C(=O)NCC2(N(C)C)CCCCC2)cc1,inactive: 0.37%
18,CN(C)c1cccc(C(=O)NCC2(N(C)C)CCCCC2)c1,inactive: -2.02%
19,O=C(OC1CN2CCC1CC2)C(CO)(c1ccccc1)c1ccccc1 (centres undefined),inactive: 1.08%
20,COc1ccc(Cl)cc1C(=O)NCC1(N(C)C)CCCCC1,inactive: -1.54%
21,COc1cccc(C(=O)NCC2(N3CCCCC3)CCCCC2)c1,inactive: -8.57%
22,O=C(NCC1(N2CCCCC2)CCCCC1)c1cccc(Cl)c1,inactive: 5.09%
23,CN(C)C1(CNC(=O)c2ccc(Br)cc2)CCCCC1,inactive: -11.5%
24,COc1cc(C(=O)NCC2(N(C)C)CCCCC2)c([N+](=O)[O-])cc1OC,inactive: 11.3%
